Biological target: Cholinesterase (Homo sapiens, UniProt P06276)
Test: Reactivation of OP compound induced inhibition of BChE in human plasma using ATCh as substrate by Ellman's method

Chains of the proteins cited; added tags and fusions are not shown. Residues count along the entry.
UniProt P06276, 29-602 limits assumed: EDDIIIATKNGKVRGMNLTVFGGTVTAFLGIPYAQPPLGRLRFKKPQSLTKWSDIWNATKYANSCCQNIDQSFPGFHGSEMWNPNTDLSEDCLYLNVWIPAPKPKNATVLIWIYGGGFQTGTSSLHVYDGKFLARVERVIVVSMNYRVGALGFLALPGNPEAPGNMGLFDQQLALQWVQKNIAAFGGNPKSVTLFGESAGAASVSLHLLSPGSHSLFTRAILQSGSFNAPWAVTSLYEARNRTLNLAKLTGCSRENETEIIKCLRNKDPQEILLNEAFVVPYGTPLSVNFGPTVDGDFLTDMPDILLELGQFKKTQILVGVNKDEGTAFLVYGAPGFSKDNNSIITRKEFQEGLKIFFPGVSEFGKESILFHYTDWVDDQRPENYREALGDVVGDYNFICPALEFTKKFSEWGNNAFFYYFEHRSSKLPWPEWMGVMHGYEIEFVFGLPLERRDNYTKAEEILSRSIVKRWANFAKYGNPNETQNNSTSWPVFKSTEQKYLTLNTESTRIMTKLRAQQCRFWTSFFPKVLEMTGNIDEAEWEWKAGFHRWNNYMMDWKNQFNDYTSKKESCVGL

Compound	Ki [µM]
NC(=O)c1cc[n+](CC=CC[n+]2cc(F)c(C=NO)c(F)c2)cc1	243
NC(=O)c1cc[n+](CC=CC[n+]2ccc(C=NO)c(F)c2)cc1	110
NC(=O)c1cc[n+](CCCC[n+]2cc(F)c(C=NO)c(F)c2)cc1	284
NC(=O)c1cc[n+](CCC[n+]2cc(F)c(C=NO)c(F)c2)cc1	279
NC(=O)c1cc[n+](CCC[n+]2ccc(C=NO)c(F)c2)cc1	484
